# Measured values: PubChem BioAssay AID1645856 (Buhrlage Lab, Dana-Farber Cancer Institute and Novartis …, 2021)
# Amino acid sequences for entries named in this document (tags omitted).
# UniProt Q14694, whole entry, looked up: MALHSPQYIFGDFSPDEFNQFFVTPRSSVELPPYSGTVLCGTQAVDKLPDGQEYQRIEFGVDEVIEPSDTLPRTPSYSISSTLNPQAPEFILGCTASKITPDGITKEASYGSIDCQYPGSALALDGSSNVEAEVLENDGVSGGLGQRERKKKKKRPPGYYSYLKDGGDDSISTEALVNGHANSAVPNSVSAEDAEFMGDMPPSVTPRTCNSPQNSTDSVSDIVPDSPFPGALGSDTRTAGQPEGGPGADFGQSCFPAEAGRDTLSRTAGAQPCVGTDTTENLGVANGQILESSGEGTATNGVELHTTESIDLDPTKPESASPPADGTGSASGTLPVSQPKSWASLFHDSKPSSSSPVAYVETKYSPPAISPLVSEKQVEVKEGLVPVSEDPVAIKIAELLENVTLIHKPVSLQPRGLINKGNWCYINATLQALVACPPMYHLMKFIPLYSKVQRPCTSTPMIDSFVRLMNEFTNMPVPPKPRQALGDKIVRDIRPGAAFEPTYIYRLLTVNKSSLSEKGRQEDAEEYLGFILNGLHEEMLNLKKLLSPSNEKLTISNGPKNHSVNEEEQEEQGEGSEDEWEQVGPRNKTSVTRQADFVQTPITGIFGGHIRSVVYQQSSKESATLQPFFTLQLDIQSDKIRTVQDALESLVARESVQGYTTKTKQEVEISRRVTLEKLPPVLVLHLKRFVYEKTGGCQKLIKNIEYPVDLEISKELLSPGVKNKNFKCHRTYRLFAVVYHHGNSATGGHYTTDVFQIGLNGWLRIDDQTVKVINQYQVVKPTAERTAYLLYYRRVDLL
# Only a part is listed here, and it is no random draw. Calls of active or inactive are those of the source. Cut-off read from the data, not from the text of the source: active = inhibition above about 30%; inactive = the rest.
# Molecular target: Ubiquitin carboxyl-terminal hydrolase 10 (Homo sapiens) (UniProt Q14694)
# Test: blocks human USP10 ubiquitin-rhodamine cleavage (AID 1645856)
# Conditions: purified USP10, Ub-rhodamine fluorescence, 60 min; at 20 µM; hits give high values
row,SMILES,inhibition
1,N#Cc1cccc(C(=O)N(Cc2ccco2)C2CCN(CCc3ccc(Cl)cc3)CC2)c1,inactive: -2.17%
2,Cc1[nH]c2c(N(C(=O)Nc3ccccc3)C3CCN(Cc4ccccc4)CC3)cccc2c1C,inactive: -7.1%
3,COc1ccc(CCN2CCC(N(Cc3cccnc3)C(=O)c3cccc(C#N)c3)CC2)cc1,inactive: -4.7%
4,O=C(c1ccc2c(c1)OCO2)N(Cc1ccco1)C1CCN(CCc2ccccn2)CC1,inactive: -4.02%
5,O=C(COC(=O)C(O)(c1ccccc1)c1ccccc1)NCc1ccc2c(c1)OCO2,inactive: -3.44%
6,CS(=O)(=O)c1ccc(C(=O)N(Cc2ccco2)C2CCN(CCc3ccccn3)CC2)cc1,inactive: -14.1%
7,N#Cc1cccc(C(=O)N(Cc2cccnc2)C2CCN(CCc3ccccn3)CC2)c1,inactive: -7.76%
8,CS(=O)(=O)c1ccc(C(=O)N(Cc2cccnc2)C2CCN(CCc3ccc(Cl)cc3)CC2)cc1,inactive: -2.57%
9,COc1ccc(CCN2CCC(N(Cc3ccco3)C(=O)c3ccc(S(C)(=O)=O)cc3)CC2)cc1,inactive: -4.26%
10,CN1C(=O)C2C(NC(=NCc3ccco3)N2CCc2ccccc2)N(C)C1=O (stereo unspecified),inactive: -4.81%
11,N#Cc1cccc(C(=O)N(Cc2ccco2)C2CCN(CCc3ccccn3)CC2)c1,inactive: -2.56%
